ChEMBL document CHEMBL1154594, “Delta agonist hydroxy bioisosteres: the discovery of 3-((1-benzylpiperidin-4-yl){4-[(diethylamino)carbonyl]phenyl}amino)benzamide with improved delta agonist activity and in vitro metabolic stability” (Bioorg Med Chem Lett, 2009)

The chains behind the UniProt entries cited, without tags or fusion partners.
UniProt P41143, whole entry: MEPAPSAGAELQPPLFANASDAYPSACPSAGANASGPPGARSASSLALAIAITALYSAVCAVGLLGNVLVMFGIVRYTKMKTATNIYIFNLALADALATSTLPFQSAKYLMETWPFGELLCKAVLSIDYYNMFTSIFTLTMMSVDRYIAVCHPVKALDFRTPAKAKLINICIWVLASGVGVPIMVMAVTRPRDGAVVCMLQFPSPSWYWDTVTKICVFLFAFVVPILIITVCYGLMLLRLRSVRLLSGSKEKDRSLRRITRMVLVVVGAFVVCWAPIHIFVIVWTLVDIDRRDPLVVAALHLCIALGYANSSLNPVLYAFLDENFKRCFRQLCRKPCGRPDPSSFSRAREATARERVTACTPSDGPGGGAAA

Columns and labels:
Homo sapiens [1] = species on record: Homo sapiens; experiment: Selectivity ratio of Ki for human cloned kappa opioid receptor to Ki for human cloned delta opioid receptor
[2] = biological target: Delta-type opioid receptor (Homo sapiens) (UniProt P41143); experiment: Agonist activity at human delta opioid receptor by GTP[gamma]35S binding assay relative to SNC80
Homo sapiens [3] = species on record: Homo sapiens; experiment: Selectivity ratio of Ki for human cloned mu opioid receptor to Ki for human cloned delta opioid receptor

CCN(CC)C(=O)c1ccc(N(c2cccc(O)c2)C2CCN(Cc3ccccc3)CC2)cc1
Ratio Ki (Homo sapiens [1]): 1770
Emax [2]: 100%
Ratio Ki (Homo sapiens [3]): 210

CCN(CC)C(=O)c1ccc(N(c2cccc(NC(=O)OC)c2)C2CCN(Cc3ccccc3)CC2)cc1
Ratio Ki (Homo sapiens [1]): 1400
Emax [2]: 102%
Ratio Ki (Homo sapiens [3]): 183

CCN(CC)C(=O)c1ccc(N(c2ccccc2C(N)=O)C2CCN(Cc3ccccc3)CC2)cc1
Ratio Ki (Homo sapiens [1]): 262
Ratio Ki (Homo sapiens [3]): 132

CCN(CC)C(=O)c1ccc(N(c2cccc(N)c2)C2CCN(Cc3ccccc3)CC2)cc1
Ratio Ki (Homo sapiens [1]): 2110
Emax [2]: 109%
Ratio Ki (Homo sapiens [3]): 1430

CCN(CC)C(=O)c1ccc(N(c2cccc(CN(C)C)c2)C2CCN(Cc3ccccc3)CC2)cc1
Ratio Ki (Homo sapiens [1]): 51
Emax [2]: 112%
Ratio Ki (Homo sapiens [3]): 121

CCN(CC)C(=O)c1ccc(N(c2cccc(C=O)c2)C2CCN(Cc3ccccc3)CC2)cc1
Ratio Ki (Homo sapiens [1]): 1410
Emax [2]: 109%
Ratio Ki (Homo sapiens [3]): 349

CCN(CC)C(=O)c1ccc(N(c2cccc(NS(C)(=O)=O)c2)C2CCN(Cc3ccccc3)CC2)cc1
Ratio Ki (Homo sapiens [1]): 2600
Emax [2]: 98%
Ratio Ki (Homo sapiens [3]): 337

CCN(CC)C(=O)c1ccc(N(c2cccc(C(C)=O)c2)C2CCN(Cc3ccccc3)CC2)cc1
Ratio Ki (Homo sapiens [1]): 2670
Emax [2]: 116%
Ratio Ki (Homo sapiens [3]): 906

CCN(CC)C(=O)c1ccc(N(c2cccc(C(C)O)c2)C2CCN(Cc3ccccc3)CC2)cc1 (stereo not drawn)
Ratio Ki (Homo sapiens [1]): 59
Ratio Ki (Homo sapiens [3]): 47

CCN(CC)C(=O)c1ccc(N(c2cccc(CN)c2)C2CCN(Cc3ccccc3)CC2)cc1
Ratio Ki (Homo sapiens [1]): 7
Ratio Ki (Homo sapiens [3]): 2

CCN(CC)C(=O)c1ccc(N(c2cccc(C(=O)OC)c2)C2CCN(Cc3ccccc3)CC2)cc1
Ratio Ki (Homo sapiens [1]): 92
Ratio Ki (Homo sapiens [3]): 118

CCN(CC)C(=O)c1ccc(N(c2cccc(NC(C)=O)c2)C2CCN(Cc3ccccc3)CC2)cc1
Ratio Ki (Homo sapiens [1]): > 5590
Emax [2]: 96%
Ratio Ki (Homo sapiens [3]): 568

CCN(CC)C(=O)c1ccc(N(c2cccc(CO)c2)C2CCN(Cc3ccccc3)CC2)cc1
Ratio Ki (Homo sapiens [1]): 570
Emax [2]: 103%
Ratio Ki (Homo sapiens [3]): 326

CCN(CC)C(=O)c1ccc(N(c2cccc(C(=O)NC)c2)C2CCN(Cc3ccccc3)CC2)cc1
Ratio Ki (Homo sapiens [1]): > 515
Emax [2]: 100%
Ratio Ki (Homo sapiens [3]): 243

CCN(CC)C(=O)c1ccc(N(c2cccc(C(N)=O)c2)C2CCN(Cc3ccccc3)CC2)cc1
Ratio Ki (Homo sapiens [1]): 2500
Emax [2]: 101%
Ratio Ki (Homo sapiens [3]): 972

CCN(CC)C(=O)c1ccc(N(c2ccc(C(N)=O)cc2)C2CCN(Cc3ccccc3)CC2)cc1
Ratio Ki (Homo sapiens [1]): 193
Ratio Ki (Homo sapiens [3]): 15
